# Antibody variant affinities, Ab-14 heavy chain, assay B

Data: MIT Lincoln Laboratory AlphaSeq set, Li et al. 2023, doi:10.1038/s41467-023-39022-2, as distributed in FLAb.

Target: peptide PDVDLGDISGINAS, taken from heptad repeat 2 (HR2) of SARS-CoV-2 spike.

Each scFv is VH, a 15-residue (Gly4Ser)3 linker, VL, as in the parent Ab-14, and differs from it in the CDRs of the heavy chain only.
VH: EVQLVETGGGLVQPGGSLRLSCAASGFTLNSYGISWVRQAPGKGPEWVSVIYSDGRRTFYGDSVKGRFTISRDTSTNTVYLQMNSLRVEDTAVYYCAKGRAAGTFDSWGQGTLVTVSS
VL: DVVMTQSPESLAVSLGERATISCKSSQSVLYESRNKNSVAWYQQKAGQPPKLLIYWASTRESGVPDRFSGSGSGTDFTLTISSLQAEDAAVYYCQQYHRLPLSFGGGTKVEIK

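The starting antibody came from a phage panning campaign against this peptide. Designed CDR sequences, proposed from the first random library and measured here. Several design methods are mixed in this list. AlphaSeq pools MATa yeast showing the antibodies with MATalpha yeast showing the peptide. Mating (16 h, 30 °C) was followed by selection of diploids and sequencing of their barcodes. Each replicate has its own calibration line, from reference interactions of the BCL2 family. The assay was run in six technical replicates.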

Each variant is given by its three heavy chain CDRs, as the data file delimits them; those of the parent are GFTLNSYGIS, VIYSDGRRTFYGDSVK, GRAAGTFDS.
Kd is apparent (estimated from mating counts) and averaged on the log scale over replicates with a signal. Smaller is tighter.
Where no diploid with the target was found in any replicate, the entry reads "not detected": below detection, most likely a poor binder, though not proof of it.
Background: pairings of all heavy chain designs with three empty control strains gave a value in 1% of cases (median 120 nM, 5th percentile 7.0 nM). Values in that range, when seen in few replicates, are hard to tell from nonspecific mating.
The authors' rule: three or more of the six replicates give a measured affinity, fewer mean a poor binder.
The parent sequence was in this pool as ten entries: three were never detected, three once, and four in most replicates, with averages from 2.2 nM to 240 nM.
Values of this round are not directly comparable with the first-round values of the same sequences.

CDR-H1 | CDR-H2 | CDR-H3 | Kd | seen in
GFDLNSYGIS | VIYSDGRRTFYGDSVK | GQAAGTFDQ | 2.7 nM | 6 of 6
GYDLEEYGIS | VIYADGRRAAYIENVK | DGVNDGVFV | not detected | 0 of 6
GFTLNSYGIS | VIYSDGRRTFYGDSVV | GRAAGTFDS | 18 nM | 2 of 6
GFSLNSYGIS | VIYSDGKRTFYGDSVK | GKTAGTFDS | 2.4 nM | 6 of 6
GFWLNEYGIS | VIYSDGRRTFYVDSVK | GRQAGTFDS | 27 nM | 4 of 6
GFDLNEYGIS | VIYADGRRTFYTDSVK | GEQAGTFDS | 560 pM | 6 of 6
GFDLEDYGIS | VIYADGMRTAYSDSVK | GNNAGTFDV | 3.3 nM | 6 of 6
GFDLNEYGIS | VIYSDGRRTFYDDSVK | GKAAGTFDS | 570 pM | 6 of 6
GQNLDEYGIS | VIYADGMRKWYADDVK | GISSAFVII | not detected | 0 of 6
GFGLNSYGIS | VIYSDGRRTFYADSVK | GRQAGTFDS | 2.4 nM | 6 of 6
GFTLNDYGDS | VIYSDGRRTTYGDSVK | GRAALTFIS | not detected | 0 of 6
GFDLNEYGIS | VIYADGMRTFYADDVK | GEVAGTFDI | 66 pM | 6 of 6
GFNLNEYGIS | VIYADGRRTFYSDSVK | GEEAGTFDV | 260 pM | 6 of 6
GFTLNSYGIS | VIYSDGRRTFYTDSVV | GRAAGTFDS | 750 nM | 1 of 6
GKTLNEYGIS | VIYSDGRRTFYGDSVK | GRAAVTFDL | 340 nM | 3 of 6
GFDLDEYGIS | VIYADGMRTFYADSVK | GNVAGTFDV | 130 pM | 6 of 6
GFTLNEYGIS | VIYSDGRRTFYGDRVK | GRAAVTFDM | not detected | 0 of 6
GFDLNEYGIS | VIYADGKRTAYSDSVK | GEAAGTFDF | 940 pM | 6 of 6
GFNLDEYGIS | VIYADGRRTGYQDKFK | GANNFSVMM | not detected | 0 of 6
GFWLNDYGIS | VIYSDGRRTFYGDAVK | GRAAGTFDI | 50 nM | 6 of 6
GFKLEEYGIS | VIYADGIRVFYADSVK | GGFDGYKFI | not detected | 0 of 6
GFGLNEYGIS | VIYSDGRRTFYIDSVK | GHAAGTFDS | 1.1 nM | 6 of 6
GFVLQEYGIS | VIYADGMRTAYAEDFK | GVTGGNLHI | 240 nM | 1 of 6
GFTLNEYGIS | VIYSDGRRTFYSDAVK | GRHAGTFDS | 4.3 nM | 6 of 6
GFNLDECGIS | VIYADGRRQMYAVSVK | GEIGGTFLM | not detected | 0 of 6
GFQLNDYGIS | VIYSDGRRTFYIDTVK | GNAAGTFDS | 11 nM | 6 of 6
GFTLNDYGIS | VIYSDGRRTFYGDSVK | GRGAGAFDS | not detected | 0 of 6
GFTLNEYGIS | VIYSDGRRTFYGDDVK | GRFAGTFDS | 2.5 nM | 6 of 6
GFTLNSYGIS | VIYSDGRRTFYGDGVK | GNEAGTFDT | 5.9 nM | 4 of 6
GFSLNSYGIS | VIYSDGRRTFYGDKVK | GEAAGTFDK | 1.5 nM | 6 of 6
GFQLNDYGIS | VIYSDGRRTFYIDPVK | GKAAGTFDS | 5.5 nM | 1 of 6
GFGLAEYGIS | VIYADGQRKSYANKVK | GRLSGTVIM | not detected | 0 of 6
GFDLNEYGIS | VIYADGKRTFYADSVK | GQAAGTFDS | 250 pM | 6 of 6
GFDLNSYGIS | VIYSDGRRTFYADSVK | GQAAGTFDV | 780 pM | 6 of 6
GFSLDEYGIS | VIYADGRRTFYADSVK | GNVAGTFDV | 120 pM | 6 of 6
GFSLNDYGIS | VIYSDGRRTFYHDSVK | GRAAGTFDS | 3.1 nM | 6 of 6
GFNLNEYGIS | VIYADGMRKFYADSVK | GNTAGTFDV | 150 pM | 6 of 6
GFSLNSYGIS | VIYSDGRRTFYGDSVK | GHVAGTFDS | 150 pM | 5 of 6
GFDLDEYGIS | VIYADGKRTAYADKVK | GEVAGTFDV | 870 pM | 6 of 6
GFDLNEYGIS | VIYADGVRTAYADSVK | GENAGTFDA | 14 nM | 6 of 6
GFDLNEYGIS | VIYADGMRTVYSDSVK | GEVAGTFDV | 340 pM | 6 of 6
GFDLNEYGIS | VIYADGRRTFYSDDVK | GNVGGTFDI | 830 pM | 6 of 6
GFKLDEYGIS | VIYADGHRVAYSQKVK | GDNVGAFFV | not detected | 0 of 6
GFDLNEYGIS | VIYADGRRTAYLDSVK | GQLAGTFDI | 910 pM | 6 of 6
GFKLNEYGIS | VIYSDGRRTFYDDSVK | GRHAGTFDS | 5.2 nM | 3 of 6
GFSLNSYGIS | VIYSDGRRTAYGDSVK | GRAAGTFDQ | 790 pM | 6 of 6
GFDLNEYGIS | VIYADGRRTFYTDSVK | GEFAGTFDE | 370 pM | 6 of 6
GFDLNEYGIS | VIYADGSRTAYANSVK | GNVAGTFDV | 260 pM | 6 of 6
GFTLNSYGIS | VIYSDGRRTAYADSVK | GRAAGTNDS | 3.0 µM | 3 of 6
GFTLNEYGIS | VIYSDGRRTFYGDSVK | GRAAGTFWV | not detected | 0 of 6
GFDLNEYGIS | VIYADGRRTFYADSVK | GTLAGTFDA | 36 pM | 6 of 6
GFDLNSYGIS | VIYSDGRRTFYIDSVK | GQAAGTFDD | 23 nM | 6 of 6
GFDLNEYGIS | VIYADGFRTFYTDSVK | GEVAGTFDL | 2.0 nM | 6 of 6
GFTPNSYGIS | VIYRDGRRTFYGDSVD | GRAAGTFDQ | not detected | 0 of 6
GFTLNEYGIS | VIYSDGRRTFYSDSVK | GRAAGIFDS | not detected | 0 of 6
GFTLENYGIS | VIYSDGRRTAYGDAVK | GRAAGTFDS | 3.5 nM | 6 of 6
GFDLNEYGIS | VIYADGVRTAYADKVK | GNEAGTFDV | 450 pM | 6 of 6
GFDLNEYGIS | VIYADGQRTAYADSVK | GNTAGTFDI | 760 pM | 6 of 6
PFDLNSYGIS | VIYSDGRRTFYGDSVK | GRQAGTFDS | 22 nM | 6 of 6
GFTLNSYGIS | VIYSDWRRTFYSDSVK | GRAAGTFDL | 310 nM | 1 of 6
EFTLNSYGIS | VIYSDGRRTFYADSVK | GREAGTFDT | not detected | 0 of 6
GFTLNEYGIS | VIYSDGRRTFYGDSVK | GRTAGTFDG | 2.9 nM | 6 of 6

The first 11 variants above that were never detected:

{"CDR-H1": "GYDLEEYGIS", "CDR-H2": "VIYADGRRAAYIENVK", "CDR-H3": "DGVNDGVFV", "Kd": "not detected", "seen in": "0 of 6"}
{"CDR-H1": "GQNLDEYGIS", "CDR-H2": "VIYADGMRKWYADDVK", "CDR-H3": "GISSAFVII", "Kd": "not detected", "seen in": "0 of 6"}
{"CDR-H1": "GFTLNDYGDS", "CDR-H2": "VIYSDGRRTTYGDSVK", "CDR-H3": "GRAALTFIS", "Kd": "not detected", "seen in": "0 of 6"}
{"CDR-H1": "GFTLNEYGIS", "CDR-H2": "VIYSDGRRTFYGDRVK", "CDR-H3": "GRAAVTFDM", "Kd": "not detected", "seen in": "0 of 6"}
{"CDR-H1": "GFNLDEYGIS", "CDR-H2": "VIYADGRRTGYQDKFK", "CDR-H3": "GANNFSVMM", "Kd": "not detected", "seen in": "0 of 6"}
{"CDR-H1": "GFKLEEYGIS", "CDR-H2": "VIYADGIRVFYADSVK", "CDR-H3": "GGFDGYKFI", "Kd": "not detected", "seen in": "0 of 6"}
{"CDR-H1": "GFNLDECGIS", "CDR-H2": "VIYADGRRQMYAVSVK", "CDR-H3": "GEIGGTFLM", "Kd": "not detected", "seen in": "0 of 6"}
{"CDR-H1": "GFTLNDYGIS", "CDR-H2": "VIYSDGRRTFYGDSVK", "CDR-H3": "GRGAGAFDS", "Kd": "not detected", "seen in": "0 of 6"}
{"CDR-H1": "GFGLAEYGIS", "CDR-H2": "VIYADGQRKSYANKVK", "CDR-H3": "GRLSGTVIM", "Kd": "not detected", "seen in": "0 of 6"}
{"CDR-H1": "GFKLDEYGIS", "CDR-H2": "VIYADGHRVAYSQKVK", "CDR-H3": "GDNVGAFFV", "Kd": "not detected", "seen in": "0 of 6"}
{"CDR-H1": "GFTLNEYGIS", "CDR-H2": "VIYSDGRRTFYGDSVK", "CDR-H3": "GRAAGTFWV", "Kd": "not detected", "seen in": "0 of 6"}